Assay: Irradiation of ammonium molybdate phosphate powder, 99Mo activity in washes, target and capture matrix
Details: water, in words
Procedure: Irradiation of ammonium molybdate phosphate solid powder for 15 min at a neutron flux of 8×10^11 n cm^−2 s^−1 yielded the following results (Table 2). Sample 1 is ammonium molybdate phosphate powder irradiated and contacted with water post irradiation for solubility and radioisotope recoil studies. The irradiated sample 1 was washed twice with water (wash 1 and wash 2) to determine separation of the recoiled Molybdenum-99 (^99Mo) and solubility of the Molybdenum compound in the water capture matrix. Wash 1, Wash 2, and the irradiated molybdenum target were all analyzed for ^99Mo activity using gamma spectroscopy at the prominent ^99Mo peak of 141 KeV.
In sample 2 ammonium molybdate phosphate was irradiated in contact with a water capture matrix. Post irradiation the capture matrix was separated from the irradiation target and washed an additional time to determine post irradiation solubility (wash 1). The irradiation target, capture matrix and wash 1 were analyzed via gamma spectroscopy under similar conditions to sample 1.

Substance	solubility in the capture matrix
ammonium molybdate phosphate [Sample 1]	minimally soluble
ammonium molybdate phosphate [Sample 2]	slight solubility

Source: patent publication US10804000B2, “High efficiency continuous-flow production of radioisotopes” (priority 2016, dated 2020)
